Assays:
IDH1R132C = IDH1R132C (Homo sapiens (Human), UniProt O75874, R132C); assay: Inhibitory activity against IDH1R132C enzyme (NADPH detection, WST-8); type: biochemical; details: read-out: Test Example 1 IDH1 R132C IC50, 10 nM, residual NADPH detected with WST-8
[1] = target: HT-1080 cells expressing IDH1R132C (UniProt O75874); assay: 2-HG production inhibitory activity using HT1080 cell; type: cell-based, human; details: read-out: Test Example 3 IC50
[2] = test system: HT1080 xenografted mice (IDH1R132C); assay: 2-HG production inhibitory activity using HT1080 xenografted mice; type: in vivo, mouse

Sequences of proteins named here, by UniProt entry; tags and fusion partners are left off.
UniProt O75874, whole entry R132C: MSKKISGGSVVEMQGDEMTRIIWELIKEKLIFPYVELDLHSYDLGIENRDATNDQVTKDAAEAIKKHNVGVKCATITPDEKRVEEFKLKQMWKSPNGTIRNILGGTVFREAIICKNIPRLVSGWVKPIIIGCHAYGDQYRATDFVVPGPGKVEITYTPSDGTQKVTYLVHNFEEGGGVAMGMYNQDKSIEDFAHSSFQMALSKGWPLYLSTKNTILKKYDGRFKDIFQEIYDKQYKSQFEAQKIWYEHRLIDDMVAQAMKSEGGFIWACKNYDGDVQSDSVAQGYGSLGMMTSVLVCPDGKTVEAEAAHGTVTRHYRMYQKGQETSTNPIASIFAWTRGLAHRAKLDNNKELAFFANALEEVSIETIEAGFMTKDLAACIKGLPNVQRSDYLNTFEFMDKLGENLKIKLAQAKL

C=CC(=O)N1CCC(c2onc(-c3c(F)cc(Cl)cc3Cl)c2C(=O)n2cc(C)c3c(/C=C/C(=O)O)cccc32)CC1
IC50 (IDH1R132C): 169 nM | IC50 [1]: 11 nM | Test Example 5 Ratio (%) [2]: 18%
